This assay deals with T1, Thromboxane A2 receptor (Homo sapiens, UniProt P21731).
T1 sequence (P21731 whole entry): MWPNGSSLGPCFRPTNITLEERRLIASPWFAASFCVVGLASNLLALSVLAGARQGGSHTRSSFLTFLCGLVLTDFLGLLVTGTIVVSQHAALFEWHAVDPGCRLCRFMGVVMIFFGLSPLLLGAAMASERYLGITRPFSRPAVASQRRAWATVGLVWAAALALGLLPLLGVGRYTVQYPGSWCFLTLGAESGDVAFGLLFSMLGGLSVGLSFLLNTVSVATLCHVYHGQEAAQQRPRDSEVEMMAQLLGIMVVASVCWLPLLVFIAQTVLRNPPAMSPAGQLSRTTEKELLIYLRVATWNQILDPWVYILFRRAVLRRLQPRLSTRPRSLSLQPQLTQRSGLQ
In words: In vitro thromboxane receptor antagonism was determined using a human platelet binding assay.

This passage reports Kd results from ChEMBL document CHEMBL1130899, “Development of dual-acting agents for thromboxane receptor antagonism and thromboxane synthase inhibition. 2. Design, synthesis, and evaluation of a novel series of phenyl oxazole derivatives” (Bioorg Med Chem Lett, 1998).

Structures are written as SMILES. pKd: −log10 of the molar value.

`O=C(O)CCCC/C=C(/c1ccc(C2=N[C@@H](C(=O)NCCCCC3CCCCC3)CO2)cc1)c1cccnc1` gave a pKd of 7.29.

By pKd is commonly meant the Kd on a negative log10 scale, so that one unit is a factor of ten. A high value points to a low Kd.
